Results from US20200239500A1, “Compositions and Methods for Synthesis of Phosphorylated Molecules” (THE REGENTS OF THE UNIVERSITY OF CALIFORNIA, priority 2018, published 2020).

1-(2-(pyrenesulfonyl)ethyl)pyrophosphate [pyrene pyrophosphate]
stability to atmospheric conditions (solid at room temperature): stable to atmospheric conditions | storage stability (loss of activity) (stored for long periods of time): without loss of activity
